This is a selection; strong and weak results do not stand in their true shares. Calls of active or inactive are those of the source.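 How the source made its calls: active means activation at 10 µM reaching about 35% in either raw or pattern-adjusted values (limit read from the data); inactive means the rest.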

Protein sequences, listed by entry. Tags and fused reporters are not part of them. Lines headed by an entry give the natural chain unless they say otherwise; changes in a name come on top.
UniProt P20594: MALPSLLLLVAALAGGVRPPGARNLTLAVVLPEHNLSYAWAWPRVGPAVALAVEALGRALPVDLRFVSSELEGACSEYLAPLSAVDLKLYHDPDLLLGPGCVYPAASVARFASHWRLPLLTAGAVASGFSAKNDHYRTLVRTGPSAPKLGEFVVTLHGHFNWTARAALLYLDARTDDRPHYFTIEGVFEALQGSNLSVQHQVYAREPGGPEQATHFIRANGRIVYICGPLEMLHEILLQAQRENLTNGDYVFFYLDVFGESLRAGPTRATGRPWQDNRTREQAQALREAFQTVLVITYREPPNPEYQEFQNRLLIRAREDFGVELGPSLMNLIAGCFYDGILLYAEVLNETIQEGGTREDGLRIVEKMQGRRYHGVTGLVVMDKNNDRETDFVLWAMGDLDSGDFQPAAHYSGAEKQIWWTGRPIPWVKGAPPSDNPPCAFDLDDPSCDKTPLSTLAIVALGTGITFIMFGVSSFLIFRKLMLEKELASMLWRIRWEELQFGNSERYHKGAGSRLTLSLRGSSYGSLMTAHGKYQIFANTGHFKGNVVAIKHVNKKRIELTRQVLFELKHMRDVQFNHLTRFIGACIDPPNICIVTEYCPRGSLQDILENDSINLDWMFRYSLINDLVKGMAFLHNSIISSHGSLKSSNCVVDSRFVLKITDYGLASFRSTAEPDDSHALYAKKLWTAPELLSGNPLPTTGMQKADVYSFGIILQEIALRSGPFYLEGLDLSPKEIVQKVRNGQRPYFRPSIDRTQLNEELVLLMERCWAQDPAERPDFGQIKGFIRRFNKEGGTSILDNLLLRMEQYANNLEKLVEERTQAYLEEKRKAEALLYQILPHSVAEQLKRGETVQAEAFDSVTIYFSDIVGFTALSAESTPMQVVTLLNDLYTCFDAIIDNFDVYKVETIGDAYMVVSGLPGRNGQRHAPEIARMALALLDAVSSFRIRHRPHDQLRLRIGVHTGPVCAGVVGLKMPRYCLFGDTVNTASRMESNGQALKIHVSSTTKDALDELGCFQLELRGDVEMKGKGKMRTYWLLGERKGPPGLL

This assay has as its target Atrial natriuretic peptide receptor 2 (Homo sapiens) (UniProt P20594). Nature of the assay: GC-B stimulated cGMP production enhancers – HEK293 GC-B cells, cGMP TR-FRET, EC30 CNP, primary screen (AID 1920062). The note with it: at 10 µM, hits give high values, 0% at EC30 CNP, 100% saturating CNP. Background: TR-FRET usually uses a lanthanide donor and a delayed reading to cut background.
Consider `CC(=O)Nc1ccc(Oc2c([N+](=O)[O-])cc([N+](=O)[O-])cc2[N+](=O)[O-])cc1`, for which the activation is inactive: -2.06%. For the compound `CC(=O)Nc1ccc([As](=O)(O)O)c(O)c1`, the activation was inactive: 0.78%. Take `C[C@@H]1C=CCP(=O)(Oc2ccccc2)O1` (some centres not stated): the activation was inactive: 1%. Next, `C[C@H]1OP(=O)(Oc2ccccc2)C[C@@H]2O[C@@H]21` (some centres not stated): inactive: 0.69%; `Cc1ccccc1CN(C)C(=O)COC(=O)C(O)(c1ccccc1)c1ccccc1`: inactive: 2.21%; `COC(=O)C1(C)COP(=O)(NCc2ccccc2)OC1` (configuration not stated): inactive: -0.65%. Under `N#C/C(=C\c1ccc(N(CCBr)CCBr)cc1)C(N)=O` stands inactive: -1.72%. In the case of `CC(=O)c1ccc(N2CC2c2ccncc2)cc1` (configuration not stated), the activation is inactive: 6.59%. With `CC(C)(C)C(=O)NC(Sc1ccccc1)C(Cl)(Cl)Cl` (configuration not stated), the activation is inactive: 8.07%.

`CCc1cc(O)c([N+](=O)[O-])c(C)c1[N+](=O)[O-]`: the activation was inactive: 4.19%. As for `CCOc1ccc(C2=NCC(CBr)S2)cc1` (configuration not stated), the activation is inactive: 2.69%. Under `O=P1(Nc2nc3ccc(Cl)cc3s2)COc2ccccc2O1` (configuration not stated) stands inactive: -1.61%; under `CN(C)C(=O)Oc1noc2ccccc12`, inactive: -1.09%. Next, `O=c1c2cc([N+](=O)[O-])ccc2[nH]c2c([N+](=O)[O-])cc([N+](=O)[O-])cc12`: inactive: 8.18%; `Cc1ccccc1OP(=O)(Nc1ccccn1)Oc1ccccc1C`: inactive: 5.18%; `CC(NC(=O)COC(=O)C(O)(c1ccccc1)c1ccccc1)c1ccccc1` (configuration not stated): inactive: -2.77%. Consider `CCC(=O)N1C2C3N(C(=O)CC)C1C1N(C(=O)CC)C(C(N1C(=O)CC)N3C(=O)CC)N2C(=O)CC`, for which the activation was inactive: 4.66%. Under `O=C(OC1CN2CCC1CC2)c1ccccc1` (configuration not stated) stands inactive: -2.3%. Next, `Cc1ccc(OP(=O)(Nc2ccccn2)Oc2ccc(C)cc2)cc1`: inactive: 2.5%; `CC(=O)NC(SC(=S)N(CC(C)C)CC(C)C)C(Cl)(Cl)Cl` (configuration not stated): inactive: -7.2%. On to `COC(=O)c1cc2c(s1)N=C(c1ccccc1)N(C)P2(=O)N1CCOCC1` (configuration not stated), for which the activation is inactive: -3.06%. Turning to `O=P1(N(CCCl)CCCl)OCCC2CCCCN21` (configuration not stated), the activation is inactive: -4.61%. Under `Cc1ccc(NP(=O)(Oc2cccc(C)c2)Oc2cccc(C)c2)nc1` stands inactive: -3.49%; under `c1ccc(-c2nn[nH]n2)c(-c2nn[nH]n2)c1`, inactive: 0.39%; under `CCNC(=S)/N=C(\N)N[N+](=O)[O-]`, inactive: 1.04%.

As to `O=C(NC1CCS(=O)(=O)C1)NP(=S)(Oc1ccccc1)Oc1ccccc1` (configuration not stated), the activation was inactive: 2.6%.

Regarding `O=C(OC1CN2CCC1CC2)c1cccc(Cl)c1` (configuration not stated), the activation was inactive: 4.59%. Next, `Nc1ccc([As](=O)(O)c2ccc([N+](=O)[O-])cc2)cc1`: inactive: -2.89%.

Take `C(Cc1nn[nH]n1)Cc1nn[nH]n1`: the activation is inactive: 2.2%. Under `C/C(N)=N\P(=O)(OCc1ccccc1)OCc1ccccc1` stands inactive: -13.8%.

In the case of `O=[As](O)(c1ccccc1)c1ccc(O)cc1`, the activation was inactive: 0.88%.

In the case of `O=[N+]([O-])c1ncn(CCn2cnc([N+](=O)[O-])n2)n1`, the activation was inactive: 2.8%.

Consider `CC(=O)NC(SC(=S)N(C)C)C(Cl)(Cl)Cl` (configuration not stated), for which the activation was inactive: 0.33%. Under `C[C@H]1OP(=O)(Oc2ccccc2)[C@H](O)[C@H](O)[C@H]1N=[N+]=[N-]` (some centres not stated) stands inactive: 4.02%; under `O=P(Nc1nc2ccccc2s1)(c1ccccc1)c1ccccc1`, inactive: -2.82%; under `O=P(Nc1ccccn1)(c1ccc(Br)cc1)c1ccc(Br)cc1`, inactive: -19.3%. Next, `CN(C)C1(CNC(=O)c2ccc(Cl)c(S(N)(=O)=O)c2)CCCCC1`: inactive: 0.87%; `Nc1ccc(CCCCOc2ccccc2)cc1`: inactive: -0.5%; `COc1ccc(N)c([N+](=O)[O-])c1[N+](=O)[O-]`: inactive: -2.53%. Next, `c1nnnn1CCn1cnnn1`: inactive: -0.04%; `CC(C)C(=O)NC(Sc1ccccc1)C(Cl)(Cl)Cl` (configuration not stated): inactive: 3.03%. On to `O=P(Nc1nccs1)(c1ccccc1)c1ccccc1`, for which the activation is inactive: -3.67%. As to `c1cc(-c2nn[nH]n2)ccc1-c1nn[nH]n1`, the activation is inactive: -0.01%.

Turning to `CC1CCN(C(=O)Oc2c(Cl)cc(Cl)c3cccnc23)CC1`, the activation was inactive: -10.7%. On to `CN(C)C(=O)OCCc1n(C)cc[n+]1C`, for which the activation is inactive: -0.69%.

For the compound `CC(C)=N/N=C(\N)N[N+](=O)[O-]`, the activation was inactive: -0.59%. Next, `CC(C)c1nc(Nc2ccccc2)n(P(=O)(N(C)C)N(C)C)n1`: inactive: -0.15%. Next, `CCN(/C(=N/P(=O)(N1CCOCC1)N1CCOCC1)N1CCOCC1)c1ccc(OC)cc1`: inactive: 1.71%; `C[N+]1=C2C=CC=CC=C2SC12C([N+](=O)[O-])=CC([N+](=O)[O-])=C[C-]2[N+](=O)[O-]` (configuration not stated): inactive: 3.64%; `Nc1ccc([As](=O)(O)c2ccc(N)cc2)cc1`: inactive: 2.43%. Under `CCc1nc2c(n1)c1c(non1O)c1c2no[n+]1[O-]` stands inactive: 8.28%. Regarding `O=[N+]([O-])c1cc([N+](=O)[O-])c(CCNc2ccccc2)c([N+](=O)[O-])c1`, the activation is inactive: -2.98%. Under `Cc1ccc(NP(=O)(Oc2ccccc2)Oc2ccccc2)nc1` stands inactive: -0.84%; under `O=[N+]([O-])c1cccc2n[nH]nc12`, inactive: 0.3%; under `CC(=O)N1C2C3N(C(C)=O)C1C1N(C(C)=O)C(C(N1C(C)=O)N3C(C)=O)N2C(C)=O`, inactive: 2.15%. Under `COc1ccc(C2=NCC(CBr)S2)cc1` (configuration not stated) stands inactive: 2.3%; under `O=C(O)CNc1ccc([As](=O)(O)O)cc1`, inactive: -3.81%; under `O=[N+]([O-])c1cccc(NC2=NCC(CBr)S2)c1` (configuration not stated), inactive: 3.93%. Next, `COC(=O)C1(C)COP(=O)(Nc2ccccc2)OC1` (configuration not stated): inactive: 2.63%; `O=[N+]([O-])c1ncn(CCn2ncnc2[N+](=O)[O-])n1`: inactive: 2.69%; `CC(C)(C)C(=O)NC(Sc1ccncn1)C(Cl)(Cl)Cl` (configuration not stated): inactive: 2.86%.

For `O=C(Nc1cc([As](=O)(O)O)ccc1O)c1ccccc1`, the activation is inactive: -4.12%. `O=P1(N(CCCl)CCCl)OCCCS1` (configuration not stated): the activation was inactive: 2.44%. `Nc1cccc2ccc([As](=O)(O)O)cc12`: the activation is inactive: -0.55%.

As for `CCN(N=Nc1nonc1N)c1nonc1N`, the activation is inactive: -2.18%. Next, `CN(C(=O)Cc1ccccc1)C1CC[C@@]2(CCCO2)C[C@@H]1N1CCCC1` (some centres not stated): inactive: -2.12%; `CCn1c(=O)n(C2CCN(CC3CCCCCCC3)C[C@H]2CO)c2ccccc21` (some centres not stated): inactive: 0.27%; `Cc1ccc(NP(=O)(Oc2ccccc2F)Oc2ccccc2F)nc1`: inactive: 6.59%. Take `CN(C(=O)Cc1ccc(Cl)c(Cl)c1)[C@H]1CCCC[C@@H]1N1CCCC1`: the activation was inactive: -1.15%.

`CCOP(=O)(Nc1ccccc1)OCC`: the activation is inactive: -6.41%. Next, `Cc1cc(SC(NC(=O)c2ccc(F)cc2)C(Cl)(Cl)Cl)ncn1` (configuration not stated): inactive: -3.06%; `CN(C)P(=O)(N(C)C)n1c(Nc2ccccc2)nnc1-c1ccccc1`: inactive: -1.57%. Regarding `O=P(Nc1nc2ccc(Cl)cc2s1)(c1ccccc1)c1ccccc1`, the activation is inactive: 4.78%. Under `CCCC1OP(N)(=O)OCC1CC` (configuration not stated) stands inactive: 3.37%; under `O=C(O)c1ccccc1[As](=O)(O)O`, inactive: -0.48%. Turning to `CC(=O)Nc1ccc([As](=O)(O)O)cc1`, the activation is inactive: 2.84%. On to `O=C(NC(Sc1ccncn1)C(Cl)(Cl)Cl)c1ccccc1` (configuration not stated), for which the activation is inactive: 2.43%. Under `Oc1ccccc1CNc1ccccn1` stands inactive: -2.6%.

In the case of `CC(C)CC(=O)NC(Sc1ccc(Cl)cc1)C(Cl)(Cl)Cl` (configuration not stated), the activation is inactive: -0.14%.

For `Nc1cc(N)c2nonc2c1[N+](=O)[O-]`, the activation was inactive: 3.68%. On to `Clc1ccc(Cl)c(NC2=NCC(CBr)S2)c1` (configuration not stated), for which the activation was inactive: -1.32%. Next, `CN1CCCC(OC(=O)C(c2ccccc2)c2ccccc2)C1` (configuration not stated): inactive: -10.4%; `Cc1ccc(OP(=O)(Nc2nccs2)Oc2ccc(C)cc2)cc1`: inactive: -0.24%.

As for `COc1ccccc1OP(=O)(Nc1ccc(C)cn1)Oc1ccccc1OC`, the activation is inactive: 2.57%. `Cc1ccc(N/C(=N/P(=O)(N2CCOCC2)N2CCOCC2)N2CCOCC2)cc1`: the activation was inactive: -2.37%. With `CN(C(=O)Cc1ccc(Cl)c(Cl)c1)[C@H]1CCCC[C@H]1N1CCCC1`, the activation is inactive: -4.75%.

Turning to `NC(=O)c1cc([N+](=O)[O-])cc([N+](=O)[O-])c1N`, the activation is inactive: -0.92%.

As for `O=[N+]([O-])c1cc(Oc2ccc([N+](=O)[O-])cc2C(F)(F)F)cc([N+](=O)[O-])c1`, the activation is inactive: -4.88%. Next, `COc1ccc(N/C(=N/P(=O)(N2CCOCC2)N2CCOCC2)N2CCOCC2)cc1`: inactive: -3.52%; `O=P1(N(CCCl)CCCl)Nc2ccccc2N1`: inactive: -4.47%; `O=P1(N(CCCl)CCCl)OCCCN1CCCl` (configuration not stated): inactive: 1.76%. As to `COc1cc(I)ccc1[As](=O)(O)O`, the activation is inactive: 0.56%. Next, `COc1ccc2nc(NP(=O)(c3ccccc3)c3ccccc3)sc2c1`: inactive: -5.02%; `Cc1c2c(nc3ccccc13)SC(C(Cl)Cl)C2` (configuration not stated): inactive: -0.9%; `Cc1cc(=O)[nH]c(N[N+](=O)[O-])n1`: inactive: 1.92%. Under `O=C(OC1CN2CCC1CC2)C12CC3CC(CC(C3)C1)C2` (configuration not stated) stands inactive: -0.52%; under `O=C(OC1CN2CCC1CC2)c1cccc2[nH]cnc12` (configuration not stated), inactive: 0.22%; under `CCN(CC)C(=S)SC(NC=O)C(Cl)(Cl)Cl` (configuration not stated), inactive: 3.77%. Consider `CC(C)NC(=O)NP(=O)(Oc1ccccc1)Oc1ccccc1`, for which the activation is inactive: 8.21%. Next, `ClCCSc1nnc(-c2cccnc2)o1`: inactive: 2.87%. In the case of `CC(C)c1ccc(OP(=O)(Nc2ccccn2)Oc2ccccc2F)cc1` (configuration not stated), the activation is inactive: -1.28%. Regarding `COC(=O)C1(C)COP(=O)(N2CCCCCC2)OC1` (configuration not stated), the activation was inactive: -2.03%.
